# Assay results as given in US20230285340A1.
# Molecular target: human NEP (Homo sapiens (Human), UniProt P08473)
# Test: In vitro enzyme inhibition assay at human NEP (Assay 1)
# Type: biochemical
# Details: reported as ranges
smiles,measurement,value
"O=C(O)C(=O)N[C@H](Cc1ccc(-c2ccccc2)cc1)C[C@@H](CO)C(=O)O [Example 6A, (2S,4S)-5-Biphenyl-4-yl-2-hydroxymethyl-4-(oxalylamino)pentanoic Acid]",pKi,≥9
